For one compound, Ki results are on record in patent US10550118B2, “JAK inhibitors containing a 4-membered heterocyclic amide” (THERAVANCE BIOPHARMA R&D IP, LLC, priority 2017, dated 2020).

By UniProt entry, the sequences of proteins in these tests, tags left out. Where a name states a change or a piece, a line headed by the entry shows the natural chain unless it says otherwise.
UniProt P23458: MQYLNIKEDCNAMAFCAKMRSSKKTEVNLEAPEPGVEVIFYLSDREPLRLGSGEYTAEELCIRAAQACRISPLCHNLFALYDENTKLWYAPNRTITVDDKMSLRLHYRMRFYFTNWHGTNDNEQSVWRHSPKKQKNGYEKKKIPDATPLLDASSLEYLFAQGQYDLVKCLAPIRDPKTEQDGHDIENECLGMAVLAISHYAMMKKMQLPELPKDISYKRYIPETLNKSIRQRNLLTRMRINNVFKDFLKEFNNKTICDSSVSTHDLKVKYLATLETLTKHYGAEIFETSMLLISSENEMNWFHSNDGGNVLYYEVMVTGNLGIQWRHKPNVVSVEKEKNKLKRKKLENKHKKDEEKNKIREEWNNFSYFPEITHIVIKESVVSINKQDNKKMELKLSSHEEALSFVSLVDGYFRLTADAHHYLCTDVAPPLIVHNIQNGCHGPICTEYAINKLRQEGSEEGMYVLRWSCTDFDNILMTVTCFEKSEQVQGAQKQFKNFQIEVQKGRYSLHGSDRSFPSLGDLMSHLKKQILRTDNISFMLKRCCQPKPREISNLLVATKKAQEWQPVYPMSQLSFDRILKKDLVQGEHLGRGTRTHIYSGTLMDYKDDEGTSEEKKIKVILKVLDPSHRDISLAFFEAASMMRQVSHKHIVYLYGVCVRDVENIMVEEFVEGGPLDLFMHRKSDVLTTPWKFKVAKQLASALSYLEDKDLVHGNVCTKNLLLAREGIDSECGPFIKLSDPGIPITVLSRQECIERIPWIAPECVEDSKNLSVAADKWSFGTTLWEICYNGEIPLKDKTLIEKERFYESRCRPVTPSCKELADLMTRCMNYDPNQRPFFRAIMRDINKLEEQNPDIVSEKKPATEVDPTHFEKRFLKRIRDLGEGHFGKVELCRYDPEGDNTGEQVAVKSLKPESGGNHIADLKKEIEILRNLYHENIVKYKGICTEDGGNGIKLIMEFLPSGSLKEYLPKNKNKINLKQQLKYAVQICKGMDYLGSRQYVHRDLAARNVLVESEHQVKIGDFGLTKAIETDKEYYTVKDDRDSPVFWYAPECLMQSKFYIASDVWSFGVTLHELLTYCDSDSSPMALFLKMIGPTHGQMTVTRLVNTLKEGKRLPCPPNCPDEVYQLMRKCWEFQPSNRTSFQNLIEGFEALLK
UniProt P52333: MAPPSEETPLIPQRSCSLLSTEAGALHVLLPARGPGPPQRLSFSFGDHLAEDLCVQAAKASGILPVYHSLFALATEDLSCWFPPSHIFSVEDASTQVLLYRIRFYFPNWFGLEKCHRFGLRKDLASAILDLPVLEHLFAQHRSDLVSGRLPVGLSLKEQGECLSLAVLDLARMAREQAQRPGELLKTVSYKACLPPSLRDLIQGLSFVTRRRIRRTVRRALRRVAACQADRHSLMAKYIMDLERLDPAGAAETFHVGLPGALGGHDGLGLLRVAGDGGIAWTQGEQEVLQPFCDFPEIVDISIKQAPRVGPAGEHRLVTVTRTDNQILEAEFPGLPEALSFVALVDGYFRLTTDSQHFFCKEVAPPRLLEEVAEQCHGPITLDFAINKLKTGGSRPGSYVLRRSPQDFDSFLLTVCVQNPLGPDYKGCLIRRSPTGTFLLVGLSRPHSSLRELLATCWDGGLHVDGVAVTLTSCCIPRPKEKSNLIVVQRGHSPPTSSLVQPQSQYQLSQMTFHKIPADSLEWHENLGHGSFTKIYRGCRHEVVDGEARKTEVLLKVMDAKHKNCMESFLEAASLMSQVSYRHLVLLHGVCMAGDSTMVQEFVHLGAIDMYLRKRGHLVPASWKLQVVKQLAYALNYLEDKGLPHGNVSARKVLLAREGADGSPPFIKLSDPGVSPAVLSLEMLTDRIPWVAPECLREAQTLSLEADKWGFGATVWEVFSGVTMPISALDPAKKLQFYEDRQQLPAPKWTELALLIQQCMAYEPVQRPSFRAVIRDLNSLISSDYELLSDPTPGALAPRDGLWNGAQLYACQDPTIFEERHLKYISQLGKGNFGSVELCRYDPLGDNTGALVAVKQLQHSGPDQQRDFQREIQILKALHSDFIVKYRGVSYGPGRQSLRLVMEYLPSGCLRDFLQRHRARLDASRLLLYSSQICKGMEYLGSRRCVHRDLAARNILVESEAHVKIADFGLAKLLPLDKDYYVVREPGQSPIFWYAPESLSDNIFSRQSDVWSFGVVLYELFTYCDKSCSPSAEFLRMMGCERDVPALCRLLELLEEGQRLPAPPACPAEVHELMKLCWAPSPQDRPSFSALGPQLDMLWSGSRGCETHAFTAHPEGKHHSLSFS

For one assay, the target named is JAK1 (Homo sapiens (Human), UniProt P23458). The assay can be described thus: Biochemical JAK kinase assay (LanthaScreen), JAK1. The note with it: Km ATP 25 μM; from pIC50 by Cheng-Prusoff. On the procedure: (§1) Assay 1: Biochemical JAK Kinase Assays
(§2) A panel of four LanthaScreen JAK biochemical assays (JAK1, 2, 3 and Tyk2) were carried in a common kinase reaction buffer (50 mM HEPES, pH 7.5, 0.01% Brij-35, 10 mM MgCl2, and 1 mM EGTA). Recombinant GST-tagged JAK enzymes and a GFP-tagged STAT1 peptide substrate were obtained from Life Technologies.
(§3) Serially diluted compounds were pre-incubated with each of the four JAK enzymes and the substrate in white 384-well microplates (Corning) at ambient temperature for 1 h. ATP was subsequently added to initiate the kinase reactions in 10 μL total volume, with 1% DMSO. […] The plates were allowed to incubate at ambient temperature for 1 h before being read on the EnVision reader (Perkin Elmer).
(§4) For dose-response analysis, percent inhibition data were plotted vs. compound concentrations, and IC50 values were determined from a 4-parameter robust fit model with the Prism software (GraphPad Software). Results were expressed as pIC50 (negative logarithm of IC50) and subsequently converted to pKi (negative logarithm of dissociation constant, Ki) using the Cheng-Prusoff equation.

Another assay deals with JAK3 (Homo sapiens (Human), UniProt P52333). The assay can be described thus: Biochemical JAK kinase assay (LanthaScreen), JAK3. On the procedure: as §1, §2, §3, §4

Turning to `CCc1cc(O)c(F)cc1-c1ccc2c(-c3nc4c([nH]3)CN(C(C)C)[C@H](C(=O)N3CC(C)(N(C)C)C3)C4)n[nH]c2c1` [Example 8-16], the Ki is 0.1 nM at JAK1 and 0.32 nM on JAK3.
